Experimental data as given in patent EP4813984A1 (Jiangsu Hengrui Pharmaceuticals Co., Ltd., priority 2023, dated 2025).

Amino acid sequences for entries named in this document (tags omitted). Residues count along the entry.
UniProt P43220, 24-463 limits assumed: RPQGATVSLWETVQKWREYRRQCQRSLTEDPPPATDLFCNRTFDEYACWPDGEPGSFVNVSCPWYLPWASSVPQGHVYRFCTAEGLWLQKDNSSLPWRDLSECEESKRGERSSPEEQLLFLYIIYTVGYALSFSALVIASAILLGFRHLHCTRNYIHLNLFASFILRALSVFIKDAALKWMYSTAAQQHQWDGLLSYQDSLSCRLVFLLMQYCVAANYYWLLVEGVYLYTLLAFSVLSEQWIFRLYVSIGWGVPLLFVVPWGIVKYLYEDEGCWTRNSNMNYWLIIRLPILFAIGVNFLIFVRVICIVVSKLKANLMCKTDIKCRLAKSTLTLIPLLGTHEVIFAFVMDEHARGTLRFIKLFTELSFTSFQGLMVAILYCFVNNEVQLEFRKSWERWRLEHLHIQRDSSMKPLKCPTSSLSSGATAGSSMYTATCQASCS

Each molecule was assayed against hGLP-1 receptor (Homo sapiens, UniProt P43220) (assay: Agonist activity against GLP-1 receptor (CRE-luciferase reporter, ONE-Glo Luciferase Assay System)). Conditions: CHO-K1/CRE-luc/hGLP-1 receptor cells; 5 h incubation with compound; chemiluminescence readout.

Row | Compound | EC50 | Emax
1 | Cc1cc(-n2nc3c(c2-n2ccn(-c4ccc5c(cnn5C)c4F)c2=O)[C@H](C)N(C(=O)c2cc4cc5c(cc4n2[C@@]2(c4noc(=O)[nH]4)C[C@@H]2C)OCC52CCOC(C)(C)C2)CC3)cc(C)c1F (stereo partly drawn) | 0.01 nM | 22.02 fold
2 | Cc1cc(-n2nc3c(c2N2CC4COc5cc6c(cnn6C)c(F)c5N4C2=O)[C@H](C)N(C(=O)c2cc4cc([C@H]5CCOC(C)(C)C5)ccc4n2[C@@]2(c4noc(=O)[nH]4)C[C@@H]2C)CC3)cc(C)c1F (stereo partly drawn) | 0.02 nM | 19.03 fold
3 | Cc1cc(-n2nc3c(c2N2C[C@@H]4COc5cc6c(cnn6C6CC6)c(F)c5N4C2=O)[C@H](C)N(C(=O)c2cc4cc5c(cc4n2[C@@]2(c4noc(=O)[nH]4)C[C@@H]2C)OCC52CCOC(C)(C)C2)CC3)cc(C)c1F (stereo partly drawn) | 0.02 nM | 20.23 fold
4 | [2H]C([2H])([2H])n1ncc2c(F)c3c(cc21)OCC1CN(c2c4c(nn2-c2cc(C)c(F)c(C)c2)CCN(C(=O)c2cc5cc([C@H]6CCOC(C)(C)C6)ccc5n2[C@@]2(c5noc(=O)[nH]5)C[C@@H]2C)[C@H]4C)C(=O)N31 (stereo partly drawn) | 0.02 nM | 21.12 fold
5 | Cc1cc(-c2nn3c(c2N2C[C@@H]4COc5cc6c(cnn6C6CC6)c(F)c5N4C2=O)C(C)N(C(=O)c2cc4cc([C@H]5CCOC(C)(C)C5)ccc4n2[C@@]2(c4noc(=O)[nH]4)C[C@@H]2C)CC3)cc(C)c1F (stereo partly drawn) | 0.03 nM | 20.70 fold
6 | Cc1cc(-n2nc3c(c2N2C[C@@H]4COc5cc6c(cnn6C6CC6)c(F)c5N4C2=O)[C@H](C)N(C(=O)c2cc4cc(C5CCOC(C)(C)C5)ccn4c2C2(c4noc(=O)[nH]4)CC2)CC3)cc(C)c1F (stereo partly drawn) | 0.02 nM | 17.54 fold
7 | Cc1cc(-n2nc3c(c2-c2cncn(-c4ccc5c(cnn5C)c4)c2=O)[C@H](C)N(C(=O)c2cc4cc5c(cc4n2[C@@]2(c4noc(=O)[nH]4)C[C@@H]2C)OCC52CCOC(C)(C)C2)CC3)cc(C)c1F (stereo partly drawn) | 0.04 nM | 21.19 fold
8 | Cc1cc(-n2nc3c(c2N2C[C@@H]4COc5c(ccc6c5cnn6C5CC5)N4C2=O)[C@H](C)N(C(=O)c2cc4cc5c(cc4n2[C@@]2(c4noc(=O)[nH]4)C[C@@H]2C)OCC52CCOC(C)(C)C2)CC3)cc(C)c1F (stereo partly drawn) | 0.02 nM | 
